# Data: ChEMBL document CHEMBL2169879, “Design and synthesis of inhibitors of Plasmodium falciparum N-myristoyltransferase, a promising target for antimalarial drug discovery” (J Med Chem, 2012)
# Molecular target: T1, Glycylpeptide N-tetradecanoyltransferase (Plasmodium falciparum (isolate 3D7), UniProt Q8ILW6)
# T1 sequence (Q8ILW6 whole entry): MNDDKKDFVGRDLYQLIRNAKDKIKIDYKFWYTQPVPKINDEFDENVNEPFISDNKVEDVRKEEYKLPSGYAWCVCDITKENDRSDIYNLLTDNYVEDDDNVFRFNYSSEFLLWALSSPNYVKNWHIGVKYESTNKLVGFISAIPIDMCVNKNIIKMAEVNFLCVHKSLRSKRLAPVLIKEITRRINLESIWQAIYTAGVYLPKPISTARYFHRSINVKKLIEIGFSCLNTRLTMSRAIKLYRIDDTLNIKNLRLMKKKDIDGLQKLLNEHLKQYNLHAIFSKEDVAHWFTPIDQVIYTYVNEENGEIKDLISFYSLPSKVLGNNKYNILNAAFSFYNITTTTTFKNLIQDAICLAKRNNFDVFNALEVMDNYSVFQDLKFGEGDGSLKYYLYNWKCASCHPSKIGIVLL
# Assay: Inhibition of Plasmodium falciparum N-myristoyltransferase using [3H]-myristoyl-CoA and GLYVSRLFNRLFQKK(Biotin)-NH2 as substrate after 30 mins scintillation proximity assay
structure (smiles),measurement,value
Cc1c(-c2nc(Cc3ccccc3)no2)oc2cccc(OC3CCNCC3)c12,IC50,2 µM
